Residue numbers refer to the chain shown, from its start.
Assays:
NSD2 SET domain = target: T1, NSD2 SET domain (Homo sapiens, UniProt O96028); experiment: SPR Biacore 8K, single-cycle kinetics, […] model; type: binding
T1 construct: SET domain, residues 934-1241, N-terminal His tag, E. coli
T1 sequence (O96028 934-1241): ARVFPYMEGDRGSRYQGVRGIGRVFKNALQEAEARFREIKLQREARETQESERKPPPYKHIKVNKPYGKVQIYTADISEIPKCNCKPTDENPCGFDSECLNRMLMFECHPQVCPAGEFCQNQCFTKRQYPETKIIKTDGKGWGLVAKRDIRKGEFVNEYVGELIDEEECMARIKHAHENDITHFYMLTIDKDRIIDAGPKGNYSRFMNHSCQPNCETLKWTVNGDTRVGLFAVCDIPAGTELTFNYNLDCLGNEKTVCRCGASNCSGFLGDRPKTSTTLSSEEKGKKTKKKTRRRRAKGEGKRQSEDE

NSD2 [1] = target: T2, NSD2 (Homo sapiens, UniProt O96028, T1150A); experiment: HotSpot [3H]SAM filter-binding methyltransferase assay; type: biochemical
T2 construct: full length (residues 2-1365), N-terminal His tag, insect cell/baculovirus
T2 sequence (O96028 2-1365 T1150A): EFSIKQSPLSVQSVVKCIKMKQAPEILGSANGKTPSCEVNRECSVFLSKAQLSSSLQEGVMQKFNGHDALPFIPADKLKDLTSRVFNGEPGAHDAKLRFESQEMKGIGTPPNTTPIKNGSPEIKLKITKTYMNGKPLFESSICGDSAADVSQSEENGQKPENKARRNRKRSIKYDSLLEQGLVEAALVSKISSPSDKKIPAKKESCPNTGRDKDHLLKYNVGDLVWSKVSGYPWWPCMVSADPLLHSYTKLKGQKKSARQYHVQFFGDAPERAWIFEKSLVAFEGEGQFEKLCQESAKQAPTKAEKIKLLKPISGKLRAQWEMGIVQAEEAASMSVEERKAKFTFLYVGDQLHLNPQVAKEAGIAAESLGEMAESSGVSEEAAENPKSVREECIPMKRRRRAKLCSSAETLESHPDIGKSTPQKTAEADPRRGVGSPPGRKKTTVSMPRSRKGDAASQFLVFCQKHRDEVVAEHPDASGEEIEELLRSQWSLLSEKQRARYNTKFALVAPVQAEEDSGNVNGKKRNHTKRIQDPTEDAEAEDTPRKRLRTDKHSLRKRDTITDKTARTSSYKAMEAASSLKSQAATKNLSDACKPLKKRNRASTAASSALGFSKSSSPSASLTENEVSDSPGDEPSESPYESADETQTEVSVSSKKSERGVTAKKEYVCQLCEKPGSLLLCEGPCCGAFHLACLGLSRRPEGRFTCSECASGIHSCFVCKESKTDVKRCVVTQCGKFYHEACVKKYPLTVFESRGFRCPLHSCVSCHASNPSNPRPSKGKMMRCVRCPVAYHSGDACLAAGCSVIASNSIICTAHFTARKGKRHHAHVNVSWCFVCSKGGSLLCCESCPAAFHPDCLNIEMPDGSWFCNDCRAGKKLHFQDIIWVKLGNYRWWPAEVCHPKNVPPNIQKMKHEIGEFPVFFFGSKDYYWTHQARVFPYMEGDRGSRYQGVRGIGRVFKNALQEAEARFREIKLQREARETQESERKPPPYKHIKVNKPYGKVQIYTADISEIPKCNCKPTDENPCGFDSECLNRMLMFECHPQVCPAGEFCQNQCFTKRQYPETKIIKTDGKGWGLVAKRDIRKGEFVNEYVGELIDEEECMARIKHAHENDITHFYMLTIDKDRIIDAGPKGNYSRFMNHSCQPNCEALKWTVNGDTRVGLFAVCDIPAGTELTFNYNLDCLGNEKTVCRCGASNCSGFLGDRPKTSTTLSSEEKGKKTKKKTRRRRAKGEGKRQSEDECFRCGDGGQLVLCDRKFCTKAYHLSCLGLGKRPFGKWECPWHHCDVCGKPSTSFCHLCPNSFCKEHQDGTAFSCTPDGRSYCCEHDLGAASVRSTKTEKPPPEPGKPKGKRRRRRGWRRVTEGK

NSD2 [2] = target: T3, NSD2 (Homo sapiens, UniProt O96028); experiment: as above; type: biochemical
T3 construct: full length (residues 2-1365), N-terminal His tag, insect cell/baculovirus
T3 sequence (O96028 2-1365): T2 sequence (O96028 2-1365 T1150A) with A1149T

NSD2 [3] = target: T4, NSD2 (Homo sapiens, UniProt O96028, E1099K); experiment: as above; type: biochemical
T4 construct: full length (residues 2-1365), N-terminal His tag, insect cell/baculovirus
T4 sequence (O96028 2-1365 E1099K): T2 sequence (O96028 2-1365 T1150A) with E1098K, A1149T

## Nc1ncnc2c1ncn2[C@@H]1O[C@H](CSCC[C@H](N)C(=O)O)[C@@H](O)[C@H]1O [SAH]
NSD2 SET domain
  Kd: 5.1 µM
NSD2 [1]
  IC50: 1.5 µM
NSD2 [2]
  IC50: 8.2 µM
NSD2 [3]
  IC50: 0.94 µM

— paper doi:10.1101/208439v1 (biorxiv, 2017)
